Screening data deposited in PubChem by National Center for Advancing Translational Sciences (NCATS).
Lamin A splicing: changes lamin A minigene splicing in HeLa cells | HeLa LMNA splicing GFP/RFP minigene ratio, 48 h | Potency, µM (highest dose often 46.1 µM), without a hit: top-dose ratio change, negative = inhibition, most hits filed as inhibitors | hit rate 0.01% among 200,000 | AID 1487; active = well fitted inhibition curve with a large enough effect in the signal ratio, with a control signal flat, not every such curve was filed as active; inconclusive = small, poorly fitted or top-dose-only effect, or effect the other way, or a change in a side signal; the % refers to the signal ratio; also: potency is read from the fitted curve at half-maximal effect; % is scaled to controls: 0 for no effect and ±100 for the full control effect
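S3 HeLa stable clones carrying a lamin A-EGFP splicing minigene plus DsRed2 were seeded at 600 cells/well in Opti-MEM with 2% FBS, pin-dosed and incubated 48 h at 37°C. Acumen cytometry (488 nm) gave the GFP/RFP total-intensity ratio.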
Sfp inh: qHTS Assay for Inhibitors of Bacillus subtilis Sfp phosphopantetheinyl transferase (PPTase); Biochemical Sfp PPTase activity, qHTS; Potency, µM, for inactives: max response, negative = inhibition, actives largely listed as inhibitors; actives 3.5% (n = 310,000); AID 1490, 2009; active = well fitted inhibition curve with a large enough effect; inconclusive = small, poorly fitted or top-dose-only effect, or another doubt; inactive = no such curve, though single readings can be large or run the other way;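 note: the enzyme is Sfp with the accession as filed and its product quenches rhodamine fluorescence; potency is the fitted concentration of half-maximal effect; 0% = enzyme reaction without inhibitor and -100% = no enzyme wells; top concentration of the series not given in the record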
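With Hepes-Na pH 7.6 buffer containing 10 mM MgCl2, Sfp (15 nM) modified BHQ-2-YbbR (12.5 uM) using rhodamine-CoA (5 uM). Two reads 30 minutes apart at 525/598 nm yielded each well's rate.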
ALDH1A1 block: blocks purified human ALDH1A1 activity | P00352 | AID 1030 | hit rate 7.3% among 220,000 | Purified ALDH1A1, NADH fluorescence, propionaldehyde substrate | Potency, µM (titrated, usually from 75.3 µM), for the others: top-dose activity, negative = inhibition, hits mostly inhibitors; active = well fitted inhibition curve with a large enough effect, not every such curve was filed as active; inconclusive = small, poorly fitted or top-dose-only effect, or another doubt; inactive = no such curve, though single readings can be large or run the other way;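 also: potency is read from the fitted curve at half-maximal effect; plate controls were no enzyme wells and a reference inhibitor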
miR-21 FLuc: miR-21 reporter, rising signal. HeLa miR-21 FLuc reporter, luciferase, 48 h. Potency, µM (titrated, usually from 38.3 µM), without a hit: at the top dose reporter change, positive = more light. 340,000 tested, under 10 active. AID 2288; active = well fitted rising curve with a large enough effect; inconclusive = small, poorly fitted or top-dose-only effect; inactive = no such curve, though single readings can be large or run the other way;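 also: % of control where 0% means no effect; miR-21 action dims this reporter so a rising signal means less miR-21 action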
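Luminescence from a firefly luciferase reporter carrying a miR-21 binding site downstream, stably expressed under a CMV promoter in HeLa cells that make miR-21 endogenously, reports miRNA modulation after 48 h compound exposure up to approximately 40uM final.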
JMJD2E inh: JMJD2E (human) inhibition; B2RXH2; JMJD2E catalytic domain, FDH-coupled NADH fluorescence (FDH is formaldehyde dehydrogenase); Potency, µM (highest dose often 57.1 µM), inactives show top-dose activity change, negative = inhibition, hits mostly inhibitors; hit rate 1.6% among 230,000; AID 2147; active = well fitted inhibition curve with a large enough effect, not every such curve was filed as active; inconclusive = small, poorly fitted or top-dose-only effect, or another doubt; inactive = no such curve, though single readings can be large or run the other way;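 also: potency is read from the fitted curve at half-maximal effect; 0% = wells with enzyme and -100% = buffer wells without enzyme; nearly all actives have a fitted effect of over 50% in size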
G9a block: inhibitors of human histone lysine methyltransferase G9a; G9a H3K9 monomethylation, AlphaScreen, 2 h; Potency, µM (top dose mostly 102 µM), without a hit: top-dose activity, negative = inhibition, hits mostly inhibitors; hit rate 8.8% among 350,000; also: potency is read from the fitted curve at half-maximal effect; % is scaled to controls: 0 for no effect and ±100 for the full control effect; nearly all actives have a fitted effect of over 75% in size
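Using a bead-based AlphaScreen, monomethylated H3K9 product from 2 h room-temperature reactions (G9a 20 nM, peptide 500 nM, SAM 20 uM) was detected with 0.5 ug/mL rabbit anti-H3K9me1 antibody.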
Numbers without * were called inactive; u = inconclusive; x = no result given; [ ] = another dose, or the depositor's remark. Rows were chosen to be rich in hits. Some 13% of all compounds tested hit in one or more screens of this group. Unless noted, calls follow the shape of the dose curve; as a rule, active = well fitted curve in the direction sought with a large enough effect; inconclusive = small, poorly fitted or top-dose-only effect, or another doubt; inactive = no such curve, though single readings can be large; an effect the other way counts as inactive or inconclusive.

SMILES	Lamin A splicing	Sfp inh	ALDH1A1 block	miR-21 FLuc	JMJD2E inh	G9a block
COc1ccc2cc(C(=O)N/N=C/c3sc4ccccc4c3O)ccc2c1	u	10%	0%	-9%	u	-21%[59 µM]
O=C(N/N=C/c1sc2ccccc2c1O)c1ccccc1	u	12%	u	-7%	22µM*	u
COc1ccc(C(=O)N/N=C/c2sc3ccccc3c2O)cc1	u	4%	5%	-7%	35µM*	50µM*
O=C(O)Cc1ccc(N=Nc2c(O)c(C(=O)O)cc3ccccc23)cc1	x	-13%	u	-49%	u	40µM*
CCOc1ccc(C(=O)OCc2cc(=O)n3cc(C)sc3n2)cc1	-3%[46 µM]	x	x	-5%	x	10%[59 µM]
COc1ccc(NC(=O)Nc2ccc(F)cc2)c(C)c1	x	10%	15%	-23%	1%	-12%
Cc1cc2c(NC(=O)Nc3ccc(F)cc3)cccc2nn1	x	35µM*	-8%	3%	-5%	50µM*
CCOC(=O)c1c(NC(C)=O)sc(/C(C)=N/Nc2ccc(C(=O)O)cc2)c1C	x	-7%	x	-33%	x	32µM*
CCOC(=O)c1c(NC(C)=O)sc(C(=O)NC2CCCC2)c1C	x	23%	x	0%	x	-4%
COCCNC(=O)c1ccc2c(=O)n(CCCN3CCCC3=O)c(=S)[nH]c2c1	7%[46 µM]	50µM*	u	1%	-1%	u
CCCCCNC(=O)c1ccc2c(=O)n(CCCN3CCCC3=O)c(=S)[nH]c2c1	x	-14%	u	-4%	5%	6.3µM*
COc1ccc(Cn2c(=O)[nH]c3cc(C(=O)NCCCN4CCCC4=O)ccc3c2=O)cc1	-3%	0%	-13%	-4%	-5%	8%[2.33 µM]
O=C(NCc1cccnc1)c1ccc2c(=O)n(CCCN3CCCC3=O)c(=S)[nH]c2c1	0%	-2%	6%	-3%	4%	40µM*
O=C(NCc1ccccc1Cl)c1ccc2c(=O)n(CCCN3CCCC3=O)c(=S)[nH]c2c1	5%	15%	0.63µM*	1%	3%	-11%[59 µM]
CCCCCn1c(=O)[nH]c2cc(C(=O)NCCCN(CC)CC)ccc2c1=O	0%	6%	-10%	-3%	u	-10%[2.33 µM]
CC(C)CNS(=O)(=O)c1ccc(CCC(=O)NCCc2ccccc2)cc1	x	8%	x	-4%	x	1%
NC(=O)NCC(N)C(=O)O (stereo unspecified)	-6%	-12%	6%	x	-8%	x
CCCC12CN3CC(CCC)(CN(C1)C3c1c(C)[nH]c(=O)[nH]c1=O)C2=O (stereo unspecified)	x	x	x	7%	x	-29%[59 µM]
COc1ccc(OC)c(NC(=O)N2c3ccccc3Sc3ccccc32)c1	x	x	x	-16%	x	u
CCN1CCN(C(=O)c2ccc(N3CC4CC(C3)c3cccc(=O)n3C4)c([N+](=O)[O-])c2)CC1 (stereo unspecified)	x	9%	-7%	0%	3%	56µM*
COc1cccc(NC(=S)Nc2cc(C(=O)O)ccc2N2CC3CC(C2)c2cccc(=O)n2C3)c1 (stereo unspecified)	x	4%	u	-27%	-8%	40µM*
Cc1ccc(NC(=S)Nc2cc(C(=O)O)ccc2N2CC3CC(C2)c2cccc(=O)n2C3)cc1C (stereo unspecified)	x	56µM*	28µM*	-13%	-4%	40µM*
Nc1cc(C(=O)N2CCN(c3ccc([N+](=O)[O-])cc3)CC2)ccc1N1CC2CC(C1)c1cccc(=O)n1C2 (stereo unspecified)	x	-1%	x	-6%	x	u
CCC(C)n1cnc2c(c1=O)c1nc3ccccc3nc1n2Cc1ccccc1OC (stereo unspecified)	4%	11%	u	-7%	-11%	-2%
Cc1cccc(-n2cnc3c(c2=O)c2nc4ccccc4nc2n3Cc2ccco2)c1	-7%	3.5µM*	u	2%	u	u
COc1ccc(Cn2c3nc4ccccc4nc3c3c(=O)n(Cc4ccco4)cnc32)cc1	10%	4.5µM*	u	-1%	u	-42%[12.7 µM]
CC(C)CCn1cnc2c(c1=O)c1nc3ccccc3nc1n2Cc1ccc2c(c1)OCO2	12%	8%	u	-1%	5%	-1%[0.501 µM]

A draw from above in order of molecular weight, descending:
SMILES	Lamin A splicing	Sfp inh	ALDH1A1 block	miR-21 FLuc	JMJD2E inh	G9a block
Cc1cccc(-n2cnc3c(c2=O)c2nc4ccccc4nc2n3Cc2ccco2)c1	-7%	3.5µM*	u	2%	u	u
CC(C)CNS(=O)(=O)c1ccc(CCC(=O)NCCc2ccccc2)cc1	x	8%	x	-4%	x	1%
COc1ccc(OC)c(NC(=O)N2c3ccccc3Sc3ccccc32)c1	x	x	x	-16%	x	u
CCOc1ccc(C(=O)OCc2cc(=O)n3cc(C)sc3n2)cc1	-3%[46 µM]	x	x	-5%	x	10%[59 µM]
COc1ccc(C(=O)N/N=C/c2sc3ccccc3c2O)cc1	u	4%	5%	-7%	35µM*	50µM*
